Laboratory results as given in patent publication US6987211B1, “Transgenic non-human mammals producing a cholinesterase in their milk” (dated 2006).

By UniProt entry, the sequences of proteins in these tests, tags left out. Where a name states a change or a piece, a line headed by the entry shows the natural chain unless it says otherwise.
UniProt P22303: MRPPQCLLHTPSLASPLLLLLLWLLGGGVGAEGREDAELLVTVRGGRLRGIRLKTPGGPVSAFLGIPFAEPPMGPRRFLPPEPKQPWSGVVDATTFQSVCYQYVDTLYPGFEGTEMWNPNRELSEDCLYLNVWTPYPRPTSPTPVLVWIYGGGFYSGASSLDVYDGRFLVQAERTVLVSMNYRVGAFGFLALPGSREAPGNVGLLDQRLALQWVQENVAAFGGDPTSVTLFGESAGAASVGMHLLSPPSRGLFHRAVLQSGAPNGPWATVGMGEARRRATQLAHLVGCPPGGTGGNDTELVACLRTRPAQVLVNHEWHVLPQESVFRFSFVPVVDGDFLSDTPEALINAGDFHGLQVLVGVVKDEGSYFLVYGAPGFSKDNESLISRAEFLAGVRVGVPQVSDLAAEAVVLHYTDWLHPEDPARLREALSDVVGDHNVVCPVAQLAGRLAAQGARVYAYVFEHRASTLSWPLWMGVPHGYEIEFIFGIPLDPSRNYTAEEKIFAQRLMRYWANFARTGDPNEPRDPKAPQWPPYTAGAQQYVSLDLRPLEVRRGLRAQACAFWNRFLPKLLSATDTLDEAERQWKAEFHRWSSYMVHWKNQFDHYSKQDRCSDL

Legend:
[1] = system: endogenous frog (Fr) AChE; assay: Selective inhibition of AChE in embryo homogenates by ecothiophate; details: ecothiophate 3.3×10−7 M; value assumed in the algorithm
[2] = target: recombinant human (rH) AChE (Homo sapiens, UniProt P22303); assay: as above; details: ecothiophate 3.3×10−7 M; value assumed in the algorithm
[3] = Hypothermic responses of AChE transgenic versus control mice to drugs; details: single agonist
[4] = system: human erythrocyte AChE, human serum BChE, Drosophila nervous system ChE; details: in vitro; Loewenstein et al., 1993; cited from earlier work
[5] = system: milk cholinesterases (BuChE predominant); assay: Acetylthiocholine hydrolysis by milk cholinesterases with or without iso-OMPA; details: Iso OMPA 10 Mμ; milk of control mice and hAChE-E6 transgenics (35 nmol ATCh/minute/ml)

Compound | hypothermic response of transgenic compared with control mice [3] | other results
ecothiophate |  | inhibition of frog AChE [1]: 20%; inhibition of rHAChE [2]: 90%
Clc1cccc(Cl)c1N=C1NCCN1 | no difference | 
O=C1CCCN1CC#CCN1CCCC1 | relative resistance | 
8-OH-DPAT | relative resistance | 
CNC(=O)Oc1cccc2c1OC(C)(C)C2 |  | toxicity to ChEs among six N-methyl carbamates [4]: most toxic
CC(C)NP(=O)(NC(C)C)OP(=O)(NC(C)C)NC(C)C |  | inhibition of ATCh hydrolysing activity of milk [5]: over 80%
CN1CCCC1c1cccnc1 (centres unmarked) | relative resistance | 
